# Apparent affinities of Ab-14 variants for a coronavirus HR2 peptide

Binding partner: SARS-CoV-2 spike HR2 peptide, sequence PDVDLGDISGINAS.

Parent: Ab-14, a human scFv built as VH, the linker GGGGSGGGGSGGGGS, VL. Only the CDRs of the heavy chain vary.
VH: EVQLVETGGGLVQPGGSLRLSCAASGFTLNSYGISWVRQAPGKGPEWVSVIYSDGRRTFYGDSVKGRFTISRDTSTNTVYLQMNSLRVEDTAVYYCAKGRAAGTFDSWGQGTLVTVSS
VL: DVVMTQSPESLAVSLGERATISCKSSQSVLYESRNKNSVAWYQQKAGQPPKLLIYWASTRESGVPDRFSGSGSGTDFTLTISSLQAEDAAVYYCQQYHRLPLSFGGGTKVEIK

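The starting antibody came from a phage panning campaign against this peptide. The variants were designed computationally from a first round of random CDR variants and then made and measured. Their group label is 14H_En_Gibbs (En: ensemble of fine-tuned language models; Gibbs: Gibbs sampling). The assay is AlphaSeq: two haploid yeast populations carry antibody and antigen on their surface. After mating in shaken culture at 30 °C for 16 h, diploids were selected and their barcode pairs sequenced. Each replicate has its own calibration line, from reference interactions of the BCL2 family. Mating was done six times.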

Variants are written as CDR1, CDR2 and CDR3 of the heavy chain (limits as in the source). Parent: GFTLNSYGIS, VIYSDGRRTFYGDSVK, GRAAGTFDS.
Affinities are written as log10 Kd with Kd in nM; a lower number is a better binder.
A mean of the replicates is given; it leaves out those without a signal.
"ND" means that the variant was in the library but no mating with the target was seen in that replicate; the authors take this as a sign of poor binding, and no number exists.
A sequence measured in both rounds can read differently, since the two assays cover different ranges.

CDR-H1,CDR-H2,CDR-H3,log10 Kd (nM) by replicate,mean log10 Kd (nM),empty controls
GFDLEKYGIS,VIYADGIRKVYDQSVK,GQMAGAFTV,ND / ND / ND / ND / ND / ND,ND,0 of 18
GFDIQEYGIS,VIYADGMRVAYTNSVK,GTQSGSNII,ND / ND / ND / ND / ND / ND,ND,0 of 18
GRDLESYGIS,VIYADGLRKAYHDSVK,GTNGGVSFV,ND / ND / ND / ND / ND / ND,ND,0 of 18
GFKLEEYGIS,VIYADGQRVAYQDKVK,GQHAGMFDV,0.51 / 0.97 / 1.78 / 0.87 / 0.81 / 0.71,0.94,0 of 18
GFQLDEVGIS,VIYADGIRRAYKSKVK,GGNGGSFDL,1.38 / 2.38 / 1.18 / ND / 2.24 / 2.72,1.98,0 of 18
GFSLDEQGIS,VIYADGIRRVYIDKVK,GQYGGDFIE,ND / ND / ND / ND / ND / ND,ND,0 of 18
GFDIDEYGVS,VIYADGFREAYAESVK,GLIQTGITV,ND / 4.26 / ND / ND / ND / ND,4.26,1 of 18 (2.47)
GQDLDEYGIS,VIYADGFRTAYADTVK,GTLGFMLDS,ND / ND / ND / ND / ND / ND,ND,1 of 18 (1.89)
GFDLNEYGIH,VIYADGIRTVVSNDVK,GNVAGTIDV,-0.33 / -1.01 / -1.01 / -1.15 / -0.79 / -0.48,-0.80,0 of 18
GQHLDEYGIS,VIYADGMRKYYADNVK,GKSVGSIII,ND / ND / ND / ND / ND / ND,ND,0 of 18
GYDLEDYGIS,VIYADGVRQFYHDNFK,GQLAGTFLL,ND / ND / ND / ND / ND / ND,ND,0 of 18
GEGLQEYGIS,VIYADGQRIYYSDDVK,GQVAGHFLV,ND / ND / ND / ND / ND / ND,ND,0 of 18
GFNLDEYGIS,VIYADGQRVAYFNNVK,GKNGAFFSN,ND / ND / ND / ND / ND / ND,ND,0 of 18
GFSLNEYGIS,VIYADGLRSKYQDKVK,GELALSGDT,ND / ND / ND / ND / ND / ND,ND,0 of 18
GFDLNEFGIS,VIYADGVRTFYTDNVK,GINVVAEVI,ND / ND / ND / ND / ND / ND,ND,0 of 18
GFDIGEYGVS,VIYADGKRMAYAWKVK,GKEAGTFIL,ND / ND / ND / ND / ND / ND,ND,0 of 18
GEDLMEYGIS,VIYADGERKSYVNSVK,GGVSVTFSS,-0.84 / ND / ND / ND / ND / ND,-0.84,0 of 18
GFSIDEYGIS,VIYADGMRTAYVESVK,GTIDNNITT,ND / ND / ND / ND / ND / ND,ND,0 of 18
GFDLNEYGIS,VIYADGVRTEYQNQVK,GNIDGSFTF,ND / ND / ND / ND / ND / ND,ND,0 of 18
GFDLGEYGIS,VIYADGSRVSYAQKVK,GKNDAISYV,ND / ND / ND / ND / ND / ND,ND,0 of 18
GFDLNEYGIS,VIYADGKRYHYQDSVK,GGVVGSVLY,ND / ND / ND / ND / ND / ND,ND,0 of 18
GFNLDEYGIS,VIYADGMRTQYKDQVK,GNLVATNMT,ND / ND / ND / ND / ND / ND,ND,0 of 18
GKDIEEYGIS,VIYADGMRQAYLDKVK,GNNVGSGSF,ND / ND / ND / ND / ND / ND,ND,1 of 18 (1.61)
GEDLQEYGIS,VIYADGTRQAYSEKVK,GQHAGFLVK,0.77 / 0.68 / 0.43 / 0.71 / 0.10 / 0.36,0.51,1 of 18 (2.87)
GDSLNEYGIS,VIYADGTRSVYTDKVK,GHAGGNFMS,ND / ND / ND / ND / ND / ND,ND,0 of 18
EFDLNNYGIS,VIYADGLRTAYETSFK,GINAGTFTS,1.69 / ND / ND / ND / ND / 2.16,1.93,1 of 18 (2.11)
GFSLDEYGIS,VIYADGNRQEYIDAVK,GNYGGDFNE,ND / ND / 0.85 / ND / ND / ND,0.85,0 of 18
GEDIDEYGIS,VIYADGQRTAYDEAVK,GTIAGSFFH,ND / ND / ND / ND / ND / ND,ND,0 of 18
GFDLQEYGIS,VIYADGARYAYTNSVK,GTQAGSLIV,ND / ND / ND / ND / ND / ND,ND,0 of 18
GNTLNEYGIS,VIYADGIRKAYKDNFK,GMVTGTFDQ,ND / ND / ND / ND / ND / ND,ND,0 of 18
GFELDEYGIS,VIYADGKRKAYDNAVK,GFTGGVKLI,ND / ND / ND / ND / ND / ND,ND,0 of 18
GDNLDEYGIS,VIYADGQRTAYDDPVK,GGQTGTVMV,ND / ND / ND / ND / ND / ND,ND,0 of 18
GFNLEEYGIS,VIYADGKRSSVSDSVK,GQLGNAFDL,ND / ND / 1.99 / ND / ND / ND,1.99,1 of 18 (1.74)
GFDINEMGIS,VIYADGQRLAYAQEVK,GENTGTFTF,ND / ND / ND / ND / ND / ND,ND,0 of 18
GFDLNEMGIS,VIYADGRRVEYNDKVK,GNLTGTFDQ,ND / ND / ND / ND / ND / ND,ND,0 of 18
GKDLLEYGIS,VIYADGIRVMYQNQVK,GNVAGFFTL,ND / ND / ND / ND / ND / ND,ND,0 of 18
GDSLDEYGIS,VIYADGQRSFYADSVK,GEHDGLFFQ,ND / ND / ND / ND / ND / ND,ND,0 of 18
GEDLDEYGIS,VIYADGRRQYYANNVK,GDIADVDDL,ND / 0.64 / 1.59 / 2.10 / 1.37 / 1.93,1.52,0 of 18
GFDIEEYGIS,VIYADGSRTSYSDSVK,SGYTFNMDL,ND / ND / ND / ND / 1.52 / 0.85,1.19,0 of 18
GADINEYGIS,VIYADGDRIAAQDQVK,GTNAGSFDI,ND / 2.34 / ND / ND / ND / ND,2.34,1 of 18 (2.57)
GFDLTEYGIS,VIYADGRRTEYSTDVK,GQTAGHFLD,ND / ND / ND / ND / ND / ND,ND,0 of 18

The first 7 variants above that were never detected:

CDR-H1,CDR-H2,CDR-H3,log10 Kd (nM) by replicate,mean log10 Kd (nM),empty controls
GFDLEKYGIS,VIYADGIRKVYDQSVK,GQMAGAFTV,ND / ND / ND / ND / ND / ND,ND,0 of 18
GFDIQEYGIS,VIYADGMRVAYTNSVK,GTQSGSNII,ND / ND / ND / ND / ND / ND,ND,0 of 18
GRDLESYGIS,VIYADGLRKAYHDSVK,GTNGGVSFV,ND / ND / ND / ND / ND / ND,ND,0 of 18
GFSLDEQGIS,VIYADGIRRVYIDKVK,GQYGGDFIE,ND / ND / ND / ND / ND / ND,ND,0 of 18
GQDLDEYGIS,VIYADGFRTAYADTVK,GTLGFMLDS,ND / ND / ND / ND / ND / ND,ND,1 of 18 (1.89)
GQHLDEYGIS,VIYADGMRKYYADNVK,GKSVGSIII,ND / ND / ND / ND / ND / ND,ND,0 of 18
GYDLEDYGIS,VIYADGVRQFYHDNFK,GQLAGTFLL,ND / ND / ND / ND / ND / ND,ND,0 of 18

Of ten entries with the parent sequence, four were seen in most replicates (averages 0.34 to 2.37), three in one and three in none, so single entries are noisy.
The authors' rule: three or more of the six replicates give a measured affinity, fewer mean a poor binder.
As a blank, each scFv also met three strains without target: over all heavy chain designs, 1% of these pairings were detected, typically at 2.08 and seldom below 0.84. The control count says in how many pairings with the empty strains this scFv gave a signal, with their mean in brackets.

From the AlphaSeq antibody data of Li et al. 2023 (doi:10.1038/s41467-023-39022-2), copy in the FLAb collection.